From PMC10326068 come the findings set out here.

Test [1] addresses 649-mDia1 bound barbed end (BF) of a biotin-anchored actin filament (mouse | rabbit) (UniProt O08808). As to the kind of experiment: multicolor single-molecule TIRF colocalisation; as a6, with 20 nM unlabeled mTwf1.
Test [2] has the same target. Kind of test: multicolor single-molecule TIRF colocalisation; biotin-anchored Alexa-488 filaments grown with 50 pM 649-mDia1, then profilin-actin and 10 nM 549-CP, no mTwf1; images every 4 s; TIRF buffer 10 mM imidazole pH 7.4, 50 mM KCl, 1 mM MgCl2, 1 mM EGTA, 0.2 mM ATP, 0.5% methylcellulose.
The target in test [3] is Formin-bound barbed end (BF): actin filament on coverslip-anchored Biotin-SNAP-mDia1 (mouse | rabbit) (UniProt O08808). Kind of test: microfluidics-assisted TIRF microscopy (mf-TIRF), dissociation of pre-formed BFC complexes; BFC formed as in a4, then flow of PA with mTwf1 (up to 1 µM); observed rate constants.
Test [4] deals with Biotin-SNAP-mDia1 (FH1-FH2-C), coverslip-anchored formin (mouse) (UniProt O08808). Kind of test: microfluidics-assisted TIRF microscopy (mf-TIRF), survival of filaments on anchored formin; Biotin-SNAP-mDia1 anchored on a streptavidin coverslip; filaments in a flow of 0.2 µM unlabeled G-actin and 0.7 µM profilin (PA) only (control); room temperature; 10 mM imidazole pH 7.4, 50 mM KCl, 1 mM MgCl2, 1 mM EGTA, 0.2 mM ATP, 10 mM DTT.

The target is the same in test [5]. Kind of test: microfluidics-assisted TIRF microscopy (mf-TIRF), survival of filaments on anchored formin; as a1, PA supplemented with CP (5 nM to 1 µM).
The target is the same in test [6]. Kind of test: microfluidics-assisted TIRF microscopy (mf-TIRF), survival of filaments on anchored formin; as a1, PA supplemented with 50 nM CP and 1 µM mTwf1 together.

In turn, “549-CP (SNAP-CP labeled with SNAP-surface-549) (from UniProt P47753 1-286; P47757 1-277) (complex)” showed a lifetime of the 649-mDia1:549-CP barbed end complex with 20 nM twinfilin in test [1] of 35.4 s. In test [2], this substance had a lifetime of the 649-mDia1:549-CP barbed end complex of 149 s.

“Capping protein (CP), mouse, subunits α1 and β2, unlabeled (from UniProt P47753 1-286; P47757-2 1-272) (complex)”: in test [3], the fold increase of CP's dissociation rate from the BFC complex with 1 µM twinfilin was determined as 11 fold and the fold increase of the BFC dissociation rate (k-BFC) with 1 µM twinfilin against the control came out at 18 fold.

Regarding “Rabbit skeletal muscle actin filament (barbed end) (from UniProt P68135 1-377) (natural protein; other documents disagree on this pair)”, in test [4], the dwell time (1/dissociation rate) came out at 35 min and the fraction of filaments dissociated from formins in 500 s came out at 20%. In test [5], this substance showed a fold acceleration of formin dissociation with ~50 nM CP against the control of 10 fold and a fold increase of formin's dissociation rate with 1 µM CP against the control of 30 fold. For the same substance, the fold reduction of formin's processivity with 50 nM CP and 1 µM twinfilin against the control in test [6] was 3 fold.
